Chains of the proteins cited; added tags and fusions are not shown.
UniProt P11103, whole entry: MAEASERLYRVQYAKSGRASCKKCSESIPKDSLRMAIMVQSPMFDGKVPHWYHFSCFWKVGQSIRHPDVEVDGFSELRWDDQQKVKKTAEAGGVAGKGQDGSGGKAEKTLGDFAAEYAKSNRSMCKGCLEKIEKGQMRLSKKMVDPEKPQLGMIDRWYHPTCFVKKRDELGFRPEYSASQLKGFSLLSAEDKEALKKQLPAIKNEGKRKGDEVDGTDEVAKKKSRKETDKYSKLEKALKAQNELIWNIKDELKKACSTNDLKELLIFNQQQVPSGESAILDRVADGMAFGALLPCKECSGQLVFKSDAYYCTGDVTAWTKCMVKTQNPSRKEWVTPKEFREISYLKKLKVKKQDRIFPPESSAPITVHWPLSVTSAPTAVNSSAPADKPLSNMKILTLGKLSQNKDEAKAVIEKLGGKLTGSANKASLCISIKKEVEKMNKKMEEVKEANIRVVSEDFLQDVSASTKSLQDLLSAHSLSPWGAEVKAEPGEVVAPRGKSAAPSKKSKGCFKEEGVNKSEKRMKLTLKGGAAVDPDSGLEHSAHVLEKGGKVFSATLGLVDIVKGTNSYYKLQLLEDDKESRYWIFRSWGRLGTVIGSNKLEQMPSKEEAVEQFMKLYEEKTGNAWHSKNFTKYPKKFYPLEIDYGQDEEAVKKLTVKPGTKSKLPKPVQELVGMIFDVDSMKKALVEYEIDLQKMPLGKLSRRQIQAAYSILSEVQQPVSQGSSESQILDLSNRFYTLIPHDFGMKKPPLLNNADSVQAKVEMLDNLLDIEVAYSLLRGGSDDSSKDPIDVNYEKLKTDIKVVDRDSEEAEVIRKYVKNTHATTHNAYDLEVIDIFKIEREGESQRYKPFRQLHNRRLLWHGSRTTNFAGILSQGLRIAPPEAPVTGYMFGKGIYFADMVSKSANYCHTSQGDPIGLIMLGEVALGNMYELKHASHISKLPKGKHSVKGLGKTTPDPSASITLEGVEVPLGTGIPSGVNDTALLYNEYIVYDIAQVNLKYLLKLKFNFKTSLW

According to patent US20100121049A1, “INDENOISOQUINOLINONE ANALOGS AND METHODS OF USE THEREOF” (INOTEK PHARMACEUTICALS CORPORATION, priority 2007, published 2010):

Target: PARP (Mus musculus, UniProt P11103)
Experiment: PARP activity in cultured macrophages, whole-cell based assay (3H-NAD+ incorporation after hydrogen peroxide)
Settings: read-out: EC50 value; murine RAW macrophages; compound 1 hour prior to hydrogen peroxide (0.5 mM) for 25 minutes; PARP activity by 3H-NAD+
Method: Effect of Indenoisoquinolinone Analogs on PARP Activity in Cultured Macrophages, Using a Whole-Cell Based Assay
The murine RAW macrophages (ATCC, American Type Culture Collection, Manassas, Va.) were grown in RPMI […] (Invitrogen Life Technologies; Carlsbad, Calif.) medium supplemented with 10% heat-inactivated FBS, 2 mM L-glutamine, and 100 U/ml of penicillin and streptomycin. Cells, between passages 5 and 15, were seeded at a density of 250,000 cells/well in 12 well plates and allowed to grow 48 hours before use. Growth medium was changed on the day of use. Cells were treated with an Indenoisoquinolinone Analog diluted in a growth medium supplemented with 10% fetal bovine serum (FBS) for 1 hour prior to the addition of hydrogen peroxide (0.5 mM) for a further 25 minutes. […] The pellets were then solubilized in 250 μl of NaOH (0.1 M) containing 2% SDS overnight at 37° C. and the PARP activity was then determined by measuring the radioactivity incorporated using a Wallac scintillation counter. The solubilized protein (250 μl) was mixed with 5 ml of scintillation fluid (ScintiSafe Plus, Fisher Scientific) before being counted for 3 minutes. EC50 values were determined from a dose-response curve.

| EC50 [nM] | Structure (SMILES) |
| --- | --- |
| 75 | O=c1[nH]c2c(c3ccccc13)Cc1cc(CN3CCN(CC4CCCO4)CC3)ccc1-2 (centres unmarked) |
| > 50 | CN(Cc1ccc2c(c1)Cc1c-2[nH]c(=O)c2ccccc12)C(=O)CCN1CCOCC1 |
